# Assay results taken from US20250018046A1, “COMPOUNDS FOR TARGETING DEGRADATION OF IRAK4 PROTEINS” (BIOGEN MA INC, priority 2021, published 2025).
# The chains behind the UniProt entries cited, without tags or fusion partners.
# UniProt Q9NWZ3, whole entry: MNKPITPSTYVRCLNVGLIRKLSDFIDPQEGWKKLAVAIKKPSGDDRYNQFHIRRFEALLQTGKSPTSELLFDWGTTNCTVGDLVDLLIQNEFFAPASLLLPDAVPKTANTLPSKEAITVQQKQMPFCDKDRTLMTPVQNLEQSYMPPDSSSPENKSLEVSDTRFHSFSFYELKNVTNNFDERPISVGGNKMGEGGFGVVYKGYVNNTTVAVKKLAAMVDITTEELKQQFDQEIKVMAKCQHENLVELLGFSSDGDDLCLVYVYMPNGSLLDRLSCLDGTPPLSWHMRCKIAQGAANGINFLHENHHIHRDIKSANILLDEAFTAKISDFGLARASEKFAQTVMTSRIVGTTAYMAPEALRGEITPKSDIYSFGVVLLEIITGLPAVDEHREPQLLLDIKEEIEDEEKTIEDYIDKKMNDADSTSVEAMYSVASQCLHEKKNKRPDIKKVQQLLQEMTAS
# Molecular target: IRAK4 (Homo sapiens, UniProt Q9NWZ3)
# Assay: IRAK4 degradation assay using the HiBiT Method
# Conditions: 293T cells expressing HiBiT-tagged IRAK4; 6-hour incubation; Nano-Glo HiBiT Lytic Assay luminescence
# Experimental: Selected compounds were tested in an IRAK4 degradation assay using the HiBiT Method.
# Phenol red-free Dulbecco's modified Eagle medium (DMEM) and fetal bovine serum (FBS) were purchased from Gibco (Grand Island, NY, USA). The Nano-Glo© HiBiT Lytic Assay System was purchased from Promega (Madison, WI, USA). Cell culture flasks and 384-well microplates were acquired from VWR (Radnor, PA, USA). The 293T cell line was engineered by knocking-in a HiBiT fusion tag into the C-terminal of the IRAK4 gene in 293T cells (Synthego, Redwood City, CA, USA).
# IRAK4 degradation was measured via the quantification of luminescent signals using the Nano-Glo© HiBiT Lytic Assay kit. Test compounds were added to 384-well plates in duplicate using an 11-point half-log dilution series, with the highest dose set at 10 mM. 293T cells expressing HiBiT-tagged IRAK4 were then added into 384-well plates at a cell density of 10,000 cells per well. The plates were kept at 37° C. with 5% CO2 for 6 hours. Cells that were treated only with DMSO served as the negative control; wells that contained only assay media served as the background control. After the 6-hour incubation, Nano-Glo® HiBiT Lytic Assay reagents were added to the cells. Luminescence was acquired using an EnVision® Multilabel Reader (PerkinElmer, Santa Clara, CA, USA).
row,Compound,DC50 [nM]
1,CC(C)Oc1cc2nc(C3CCN(CCN4CCC(c5ccc(OC6CCC(=O)NC6=O)cc5)CC4)CC3)cn2cc1NC(=O)c1cccc(C(F)(F)F)n1 (centres unmarked),100 to 500
2,CC(C)Oc1cc2nc([C@H]3CC[C@H](CN4CCC(c5ccc(NC6CCC(=O)NC6=O)cc5F)CC4)CC3)cn2cc1NC(=O)c1cccc(C(F)(F)F)n1 (relative stereo),> 1000
